Experimental findings from patent publication US20030149244A1 are described below.

Chains of the proteins cited; added tags and fusions are not shown.
UniProt P01854, whole entry, chain 1 of 2: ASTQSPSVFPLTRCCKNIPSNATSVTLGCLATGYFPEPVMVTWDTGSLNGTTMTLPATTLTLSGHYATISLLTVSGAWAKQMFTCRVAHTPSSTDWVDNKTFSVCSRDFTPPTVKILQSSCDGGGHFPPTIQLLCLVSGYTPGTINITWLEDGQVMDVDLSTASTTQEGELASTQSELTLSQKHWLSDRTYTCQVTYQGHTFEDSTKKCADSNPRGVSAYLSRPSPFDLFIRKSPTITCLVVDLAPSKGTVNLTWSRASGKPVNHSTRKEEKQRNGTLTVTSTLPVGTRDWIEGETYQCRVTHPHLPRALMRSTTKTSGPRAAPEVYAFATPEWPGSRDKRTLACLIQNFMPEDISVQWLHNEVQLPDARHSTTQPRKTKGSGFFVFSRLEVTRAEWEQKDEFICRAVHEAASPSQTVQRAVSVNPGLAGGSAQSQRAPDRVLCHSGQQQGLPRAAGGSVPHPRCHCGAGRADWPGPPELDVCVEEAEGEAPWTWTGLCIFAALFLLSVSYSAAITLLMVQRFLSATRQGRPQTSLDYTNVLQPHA

The target of this assay is FcεRI-bound human IgE (IgE loaded on CHO 3D10 cells expressing the FcεRI alpha chain) (human) (UniProt P01854). Put plainly: FACS on IgE-loaded CHO 3D10 cells (FIG. 4), arithmetic/linear scale.

On to humanized 4D5 (antibody), for which the mean channel fluorescence at 0.1 µg/ml came out at 4.7.
